Assay results: patent publication US20050101640A1 (Recordati Ireland Limited, priority 2002, published 2005)

Test system: uninephrectomized anesthetized rats, renal ischemia/reperfusion hypertension
Experiment: Model of acute angiotensin-mediated renal hypertension in anesthetized rats (Example I)
Details: time 125 min, 5 min after reperfusion, at drug administration (reference value); mean ± S.E.M.

HR: 398.3 ± 18.8 beats/min
SMILES: NCCCC[C@H](N[C@@H](CCc1ccccc1)C(=O)O)C(=O)N1CCC[C@H]1C(=O)O [lisinopril]
